Target: T1, Human neutrophil elastase (HNE) (Homo sapiens, UniProt P08246)
T1 construct: gene ELANE
T1 sequence (P08246 30-247): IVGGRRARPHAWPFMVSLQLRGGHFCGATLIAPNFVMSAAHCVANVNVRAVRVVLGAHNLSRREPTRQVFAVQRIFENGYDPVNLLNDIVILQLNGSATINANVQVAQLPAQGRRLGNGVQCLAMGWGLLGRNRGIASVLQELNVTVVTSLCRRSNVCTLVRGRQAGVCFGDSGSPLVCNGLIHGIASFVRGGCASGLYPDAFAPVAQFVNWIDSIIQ
Assay: fluorometric HNE activity assay with MeO-Suc-Ala-Ala-Pro-Val-AMC, […] min preincubation, […] °C
Assay type: biochemical

IC50: 25.7 nM
SMILES: CC(C)(C)C(=O)Oc1ccc(S(=O)(=O)Nc2ccccc2C(=O)NCC(=O)O)cc1 [Sivelestat]

From paper PMC9861744, “Polysulfone Membranes Doped with Human Neutrophil Elastase Inhibitors: Assessment of Bioactivity and Biocompatibility” (Membranes, 2023)
